US20260102359A1, “COMBINATION TREATMENT OF DERMAL AND TRANSDERMAL FIBROTIC DISEASES, DISORDERS AND ASSOCIATED PAIN AND INFLAMMATION” (ERESINA, LLC, priority 2022, published 2026)

What follows are substances tested on hDMFa myofibroblast cells.
Set-up: key to the marks not given beside the values

Row | Substance | Compound Myofibroblast Cytotoxicity Activity
1 | Dovitinib (TKI-258,CHIR-258) [Cmpd 382] | ++
2 | Prostaglandin F2α [Cmpd 803] | ++++
3 | tetrahydro-L-Biopterin (hydrochloride) [Cmpd 935] | +++
